## scFv variants of Ab-14 (light chain) against a SARS-CoV-2 spike peptide

All variants were tested on one target, the spike HR2 peptide PDVDLGDISGINAS (SARS-CoV-2).

Parent scFv Ab-14: VH joined to VL by a (GGGGS)3 linker. Changes lie in the light chain CDRs alone.
VH: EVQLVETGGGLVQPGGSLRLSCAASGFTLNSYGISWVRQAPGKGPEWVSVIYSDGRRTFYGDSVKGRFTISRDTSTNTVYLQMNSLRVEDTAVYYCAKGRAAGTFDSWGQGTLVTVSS
VL: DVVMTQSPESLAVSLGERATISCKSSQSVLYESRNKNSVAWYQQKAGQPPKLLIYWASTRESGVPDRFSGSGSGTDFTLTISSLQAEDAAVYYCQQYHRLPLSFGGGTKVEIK

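The parent was found by panning a naive human phage display library on the peptide. Designed CDR sequences, proposed from the first random library and measured here. Group labels follow the data file (En: ensemble of fine-tuned language models; GP: Gaussian process model; HC: hill climbing; Gen: genetic algorithm; Gibbs: Gibbs sampling; a sequence that several methods proposed may carry one label only). The scFvs were displayed on barcoded MATa yeast, the peptide on MATalpha yeast. Binding brings cells together so that they mate, and sequencing counts the barcode pairs among the diploids. Each replicate has its own calibration line, from reference interactions of the BCL2 family. There are six technical replicates.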

The parent's light chain CDRs are KSSQSVLYESRNKNSVA, WASTRES, QQYHRLPLS; each variant's own CDRs replace them letter for letter.
This list holds designs with more than six substitutions.
The read-out is the apparent dissociation constant on a log10 scale (nM): the lower, the stronger.
Averages over replicates are reported, and they cover detected replicates only.
A pair that was not seen in that replicate is written "ND"; this usually means weak binding, but a binder can also be missed.

With KLSQSELYMDRNANSVA | NASTRMS | QQYHRLPLS [GP_Gibbs] the result was -0.13, -0.14, -0.42, -0.48, -0.27, -0.30 (mean -0.29; controls 1 of 18). For SLYEWETVGQDKSNNIA | EDSHLLE | QQYFHLPLK [En_Gibbs], the assay gave 1.35, ND, 1.22, ND, ND, ND (mean 1.29; controls 0 of 18). For SLEMFTGMLNMYKSSIA | NATYLVQ | QQYYRLPIS [En_Gibbs], the assay gave 1.19, 1.48, 1.18, 1.56, 1.12, 1.63 (mean 1.36; controls 1 of 18). With NFSQMVLTGQTLKNSVA | HASTREE | QQYHRLPLI [En_HC] the result was 1.08, 0.89, 0.90, 0.92, 0.88, 1.20 (mean 0.98; controls 1 of 18). The variant KFEQLHDYESRNKNAVA | NGSTRES | QQYHRLPLS [GP_Gibbs] showed 0.41, 0.11, -0.15, 0.02, 0.03, -0.01 (mean 0.07; controls 0 of 18). With KISQMARVGSTHGNSIA | EMVTRCN | QQYHRLPLS [En_Gen] the result was 2.14, 0.85, 1.16, 0.84, 1.14, 1.14 (mean 1.21; controls 0 of 18). For KLSSITGHMSMIKNNVA | EMETREN | QQYNRLPLA [En_Gen], the assay gave 0.69, 0.22, 0.55, 0.79, 0.47, 0.53 (mean 0.54; controls 0 of 18).

The variant QLELVQNGDTISEYSVA | HAEVSGR | QQYSQLPLI [En_Gibbs] gave ND, ND, ND, ND, ND, ND (controls 0 of 18). The variant VLQQLGLYEPRNKNSVA | SASTRCS | QQYHRLPLS [GP_Gibbs] gave 0.47, 0.59, 0.89, 0.77, 0.48, 0.85 (mean 0.67; controls 1 of 18). The variant NLQNIGSELSVWKRAIA | DVNIRES | QQYFRLPLL [En_Gibbs] showed -0.03, -0.04, -0.20, -0.23, -0.16, 0.10 (mean -0.09; controls 1 of 18). The variant AFSGSHLYESRNLNSVA | NASTREE | QQYHRLPLS [GP_Gibbs] gave -0.14, -0.14, -0.32, 0.07, -0.04, -0.02 (mean -0.10; controls 0 of 18). With QLGDVTRMESNKKNSIA | DMSTRES | QQYHRLPLS [En_HC] the result was 0.48, 0.04, 0.30, 0.45, 0.28, 0.50 (mean 0.34; controls 0 of 18). The variant KLDQWVEYGSRNKNSVA | SASQRFS | QQYHRLPLS [GP_Gibbs] gave 0.38, 0.56, 0.51, 0.49, 0.69, 0.58 (mean 0.54; controls 2 of 18). The variant MLWQHDEGFKGVKDAIA | NAELREG | QQYGRLPLS [En_Gibbs] gave 0.95, 0.57, 0.35, 0.50, 0.66, 0.59 (mean 0.60; controls 1 of 18).

With KISMLSENELKNRNSVA | ELVTRMN | QQYNRLPLS [En_Gen] the result was 0.27, 0.36, 0.67, 0.66, 0.41, 0.79 (mean 0.53; controls 1 of 18). With MISQLYNMGQFAINSVA | QASIRNQ | QQYDRLPLD [En_Gen] the result was 1.12, 1.14, 1.36, 2.22, 0.66, 1.19 (mean 1.28; controls 0 of 18). With KLASVTGTEKVMGNNVA | EMETREK | QQYNRLPLS [En_Gen] the result was 0.56, 0.24, 0.36, 0.36, 0.37, 0.34 (mean 0.37; controls 0 of 18). The variant KASDGELYESRDDNSVA | DASKRES | QQYHRLPLS [GP_Gibbs] showed 0.33, 0.35, 0.31, 0.15, 0.04, 0.42 (mean 0.26; controls 2 of 18). For KMEWSDLLESRNKQSVA | QASTRES | QQYHRLPLS [GP_Gibbs], the assay gave -0.11, 0.02, 0.00, -0.21, -0.12, 0.27 (mean -0.02; controls 1 of 18). The variant KVQEMMAFLSSNRNSVA | DNSTRGS | QQYHRLPLS [En_HC] showed 1.31, ND, 1.12, 1.85, 1.42, 1.24 (mean 1.39; controls 0 of 18). With ALGDVTRMESNKKNSIA | DMSNRES | QQYHRLPLS [En_HC] the result was 0.87, 1.86, 1.30, 1.47, 0.99, 0.77 (mean 1.21; controls 0 of 18).

The variant KLSQLFYKESRNKNNVA | EMTTRGK | QQYDRLPLS [En_HC] showed 0.34, 0.11, -0.24, 0.15, -0.19, 0.14 (mean 0.05; controls 0 of 18). The variant KLTMITGLEKVSGNNVA | EMETREK | QQYNRLPLA [En_Gen] gave 0.03, 0.11, 0.13, 0.01, 0.04, 0.09 (mean 0.07; controls 4 of 18). With TISQMQFIESKNRNNVA | EMTTREN | QDYDRLPLS [En_HC] the result was 2.10, 0.86, 0.53, 0.99, 1.31, 0.91 (mean 1.12; controls 1 of 18). With LLSQSVLLESRNWNAVA | QASTRMD | QQYHRLPLS [GP_Gibbs] the result was 1.31, 0.65, 0.84, 0.66, 0.74, 0.59 (mean 0.80; controls 2 of 18). The variant ILYQSQLYESRNKNSVA | QASKREM | QQYHRLPLS [GP_Gibbs] gave 0.59, 0.21, 0.46, 0.32, 0.17, 1.10 (mean 0.47; controls 1 of 18). The variant FFGYDIFQENMKAKSIA | EANMKVE | QQYAILPLT [En_Gibbs] showed ND, ND, 1.95, 1.54, 1.60, ND (mean 1.70; controls 0 of 18). For MLAESAHMESRNKNSVA | DNSTRES | QHYDRLPLS [En_HC], the assay gave ND, 2.05, ND, ND, ND, ND (controls 0 of 18).

The variant KVMQSKLYESRQKNSVA | NASQREL | QQYHRLPLS [GP_Gibbs] gave 0.16, 0.17, -0.03, -0.10, 0.04, 0.10 (mean 0.06; controls 0 of 18). For SITQLVGYGQKNKNSVA | QMETREN | QQYDRLPLS [En_HC], the assay gave 0.61, 0.51, 0.12, 0.49, 0.44, 0.90 (mean 0.51; controls 0 of 18). The variant KLGQMTAIESRNLNSVA | QMDTRES | QQYDRLPLS [En_HC] gave 0.80, 1.05, 0.91, 0.92, 0.81, 1.34 (mean 0.97; controls 1 of 18). With KLSMMYRYESENKNSIA | ELVTRMS | QQYHRLPLS [En_HC] the result was ND, ND, ND, ND, 0.82, ND (controls 0 of 18). With KLSQVTHSESKNKNSIA | EMVTREV | QQYDRLPLS [En_HC] the result was 0.79, 0.74, 0.62, 0.81, 0.83, 0.78 (mean 0.76; controls 1 of 18). The variant KLSSHYFESYGERQAVA | DNEAIMN | QQYHYLPLS [En_Gibbs] gave 2.06, 3.72, 2.43, 2.27, 2.30, 1.82 (mean 2.43; controls 0 of 18). The variant IVSQLMLWGMHHKNSIA | EAQTRLN | QQYERLPLF [En_Gen] showed ND, ND, ND, ND, ND, ND (controls 0 of 18).

The variant MFSQTVMYESTMRNNVA | QTSTRES | QQYDLLPLS [En_HC] gave 1.58, 1.49, 0.81, 1.05, 0.77, 0.72 (mean 1.07; controls 2 of 18). The variant VLQQSVLPESRNKNSVA | EASLRLS | QQYHRLPLS [GP_Gibbs] showed 0.32, 0.61, 0.51, 0.42, 0.35, 0.41 (mean 0.44; controls 1 of 18). The variant KLPNSQEYESRWKNSVA | EASTREL | QQYHRLPLS [GP_Gibbs] showed 0.61, 0.11, 0.22, 0.07, 0.09, 0.53 (mean 0.27; controls 0 of 18). The variant ILQQSMLYESRWKNSVA | DASVRED | QQYHRLPLS [GP_Gibbs] gave -0.06, 0.06, -0.22, -0.47, -0.27, 0.05 (mean -0.15; controls 2 of 18). With KITDHFLGLGNGRQNIA | HAGVAVE | QQYHQLPLA [En_Gibbs] the result was 1.03, 1.16, 1.15, 0.88, 0.84, 0.89 (mean 0.99; controls 1 of 18).

Picked from the list: the 3 lowest averages where every replicate gave a value.

{"CDR-L1": "KLSQSELYMDRNANSVA", "CDR-L2": "NASTRMS", "CDR-L3": "QQYHRLPLS", "group": "GP_Gibbs", "log10 Kd (nM) by replicate": "-0.13, -0.14, -0.42, -0.48, -0.27, -0.30", "log10 Kd (nM), mean": "-0.29", "empty controls": "1 of 18"}
{"CDR-L1": "ILQQSMLYESRWKNSVA", "CDR-L2": "DASVRED", "CDR-L3": "QQYHRLPLS", "group": "GP_Gibbs", "log10 Kd (nM) by replicate": "-0.06, 0.06, -0.22, -0.47, -0.27, 0.05", "log10 Kd (nM), mean": "-0.15", "empty controls": "2 of 18"}
{"CDR-L1": "AFSGSHLYESRNLNSVA", "CDR-L2": "NASTREE", "CDR-L3": "QQYHRLPLS", "group": "GP_Gibbs", "log10 Kd (nM) by replicate": "-0.14, -0.14, -0.32, 0.07, -0.04, -0.02", "log10 Kd (nM), mean": "-0.10", "empty controls": "0 of 18"}

Of ten entries with the parent sequence, four were seen in most replicates (averages 0.34 to 2.37), three in one and three in none, so single entries are noisy.
Empty control strains, which show no peptide, gave a signal in 4% of pairings with all light chain designs; the median was 2.64 and 95% of these signals were weaker than 1.59. No background was subtracted. For each scFv, signals with the empty controls are counted beside the result.
The authors averaged sequences with at least three values out of six and counted those with two or fewer as poor binders.
The range of this assay differs from that of the first round, and the authors advise against merging the two.

Source: Li et al. 2023 (doi:10.1038/s41467-023-39022-2), MIT Lincoln Laboratory and A-Alpha Bio; data file from the FLAb repository.